{"sequences": {"note": "Chains of the proteins cited; added tags and fusions are not shown.", "UniProt Q9XUB2, whole entry": "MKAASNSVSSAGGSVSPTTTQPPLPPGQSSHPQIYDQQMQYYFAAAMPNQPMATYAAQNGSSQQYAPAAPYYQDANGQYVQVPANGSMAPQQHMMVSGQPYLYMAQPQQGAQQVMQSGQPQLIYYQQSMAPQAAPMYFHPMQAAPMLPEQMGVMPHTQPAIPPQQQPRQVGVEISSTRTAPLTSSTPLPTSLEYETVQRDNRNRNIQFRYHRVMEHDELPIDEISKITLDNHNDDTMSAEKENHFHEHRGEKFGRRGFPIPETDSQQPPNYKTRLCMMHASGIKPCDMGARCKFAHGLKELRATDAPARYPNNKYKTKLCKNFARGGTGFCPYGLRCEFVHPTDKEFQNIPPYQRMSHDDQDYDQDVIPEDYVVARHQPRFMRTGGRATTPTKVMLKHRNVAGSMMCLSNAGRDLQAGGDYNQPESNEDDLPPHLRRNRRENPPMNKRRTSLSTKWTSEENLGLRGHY"}, "source": "PubChem BioAssay AID1832", "about": "(Broad Institute, 2009)", "note": "Only a part is listed here, and it is no random draw. Some tests of the compounds listed are not included; inactive here does not mean inactive elsewhere. Activity calls are given as the source filed them.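 Rule for the calls: active = inhibition past about -25% in most replicates, and total fluorescence under double the plate's negative control median (limit read from the data); inconclusive = replicates evenly split on the limit, or fluorescence at least double controls; inactive = too little inhibition in most replicates.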", "data": [{"biological_target": "Zinc finger protein mex-5 (Caenorhabditis elegans) (UniProt Q9XUB2)", "assay": "MEX-5 zinc finger RNA-binding disruptors – biochemical, C. elegans, fluorescence polarization, MLPCN library, primary screen (AID 1832);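 note: 0% = DMSO and -100% = 5 µM competing unlabeled TCR2 RNA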", "conditions": "MEX-5/FITC-TCR2 RNA binding, at 10 µM, hits give low values", "values": [{"smiles": "Cc1ccccc1C(=O)NCC1(N2CCCCC2)CCCCC1", "activity score (negative = inhibition of binding)": "inactive: 1.02%"}, {"smiles": "CN(C)c1ccc(C(=O)NCC2(N(C)C)CCCCC2)cc1", "activity score (negative = inhibition of binding)": "inactive: 3.48%"}, {"smiles": "CN(C)C1CCCC1OC(=O)C(O)(c1ccccc1)c1ccccc1", "note": "(centres undefined)", "activity score (negative = inhibition of binding)": "inactive: -3.13%"}, {"smiles": "C=CCN1CCN(CCOC(=O)C(O)(c2ccccc2)c2ccccc2)CC1", "activity score (negative = inhibition of binding)": "inactive: 0.868%"}, {"smiles": "O=C(NCC1(N2CCCCC2)CCCCC1)c1cc(F)c(F)cc1Cl", "activity score (negative = inhibition of binding)": "inactive: -0.297%"}, {"smiles": "COc1ccc(C(=O)NCC2(N(C)C)CCCCC2)cc1", "activity score (negative = inhibition of binding)": "inactive: -1.29%"}, {"smiles": "CCN1CCCC(OC(=O)C2(O)c3ccccc3C=Cc3ccccc32)C1", "note": "(centres undefined)", "activity score (negative = inhibition of binding)": "inactive: 1.06%"}, {"smiles": "Cc1cc(C(=O)NCC2(N3CCCCC3)CCCCC2)ccc1[N+](=O)[O-]", "activity score (negative = inhibition of binding)": "inactive: 0.755%"}, {"smiles": "O=C(NCC1(N2CCCCC2)CCCCC1)c1cccc(Br)c1", "activity score (negative = inhibition of binding)": "inactive: -1.92%"}, {"smiles": "O=C(NCC1(N2CCCCC2)CCCCC1)c1cc([N+](=O)[O-])ccc1Cl", "activity score (negative = inhibition of binding)": "inactive: -8.94%"}, {"smiles": "CN1[C@@H]2CC[C@H]1CC(OC(=O)C(O)(c1ccccc1)c1ccccc1)C2", "note": "(some centres undefined)", "activity score (negative = inhibition of binding)": "inactive: 0.849%"}, {"smiles": "CCN(CC)CC(C)C(C)OC(=O)C(O)(c1ccccc1)c1ccccc1", "note": "(centres undefined)", "activity score (negative = inhibition of binding)": "inactive: 0.233%"}, {"smiles": "COc1cc(SC)ccc1C(=O)NCC1(N(C)C)CCCCC1", "activity score (negative = inhibition of binding)": "inactive: -2.27%"}, {"smiles": "CC(C)N1C(=O)CC2(CCN(CCOC(=O)C(O)(c3ccccc3)c3ccccc3)CC2)C1=O", "activity score (negative = inhibition of binding)": "inactive: 3.34%"}, {"smiles": "Cc1ccc(C(=O)NCC2(N3CCCCC3)CCCCC2)cc1", "activity score (negative = inhibition of binding)": "inactive: 0.756%"}, {"smiles": "O=C(OC1CN2CCC1CC2)C(CO)(c1ccccc1)c1ccccc1", "note": "(centres undefined)", "activity score (negative = inhibition of binding)": "inactive: 2.8%"}, {"smiles": "COc1ccc(Br)c(C(=O)NCC2(N3CCCCC3)CCCCC2)c1", "activity score (negative = inhibition of binding)": "inactive: 3.46%"}, {"smiles": "CC(C)Oc1ccc(C(=O)NCC2(N(C)C)CCCCC2)cc1", "activity score (negative = inhibition of binding)": "inactive: -0.454%"}, {"smiles": "CN(C)c1cccc(C(=O)NCC2(N(C)C)CCCCC2)c1", "activity score (negative = inhibition of binding)": "inactive: -1.32%"}, {"smiles": "CN(C)C1(CNC(=O)c2ccc(Br)cc2)CCCCC1", "activity score (negative = inhibition of binding)": "inactive: 2.04%"}, {"smiles": "COc1cc(C(=O)NCC2(N(C)C)CCCCC2)c([N+](=O)[O-])cc1OC", "activity score (negative = inhibition of binding)": "inactive: -1.16%"}, {"smiles": "COc1cccc(C(=O)NCC2(N3CCCCC3)CCCCC2)c1", "activity score (negative = inhibition of binding)": "inactive: 2.69%"}, {"smiles": "COc1ccc(Cl)cc1C(=O)NCC1(N(C)C)CCCCC1", "activity score (negative = inhibition of binding)": "inactive: 2.04%"}, {"smiles": "O=C(NCC1(N2CCCCC2)CCCCC1)c1cccc(Cl)c1", "activity score (negative = inhibition of binding)": "inactive: -0.533%"}]}]}
